Target: T1, Bcl-xL (human, UniProt Q07817-1 1-233)
T1 construct: human Bcl-xL; The c-Myc tag is told for the SPOT arrays; also called c-Myc-tagged receptor; prosurvival protein
Experiment: fluorescence polarisation; direct binding: 10 nM FAM-labeled peptide, receptor serially diluted; 25°C; 20 mM NaPO4, 50 mM NaCl, 1 mM EDTA, 0.001% Triton X, pH 7.8; single-site binding model
Conditions: both partners purified

- Kd: < 30 nM
Binder: IIQMIVELLKRVGDQWEEEQSLA (N-terminal fluorescein group (FAM); amidated C-terminus) [c6orf222 BH3-like peptide]
